Measurements taken from patent US20250320214A1, “ORGANIC COMPOUNDS” (INTRA-CELLULAR THERAPIES, INC., priority 2022, published 2025).
Where two headings read alike, the source gives them in different places.

What was measured:
SERT = SERT (Homo sapiens, UniProt P31645); experiment: Receptor binding, SERT; conditions: for inhibition at 0.1 µM: at 100 nM
5-HT2A = 5-HT2A (Homo sapiens, UniProt P28223); experiment: Receptor binding, 5-HT2A; conditions: for 5-HT2A maximum inhibition: 0.1 µM; for inhibition at 0.1 µM: read-out: 5-HT2A maximum inhibition
D2 = D2 (Homo sapiens, UniProt P14416); experiment: Receptor binding, D2
D1 = D1 (Homo sapiens, UniProt P21728); experiment: Receptor binding, D1; conditions: for inhibition at 0.1 µM: read-out: D1 maximum inhibition
Mu opioid receptor = Mu opioid receptor (Homo sapiens, UniProt P35372); experiment: Receptor binding, Mu opioid receptor; conditions: for inhibition at 0.1 µM: at 100 nM, read-out: Mu maximum inhibition
[1] = read-out: SERT maximum inhibition
[2] = at 100 nM, read-out: D2 maximum inhibition
[3] = at 200 nM, read-out: SERT maximum inhibition
[4] = read-out: D2 maximum inhibition
[5] = (footnote c), read-out: SERT maximum inhibition

## O=C1CN2c3c(cccc3[C@@H]3CN(CCCOc4ccc(F)c(Cl)c4)CC[C@@H]32)N1 [Ex. 22]
SERT; [1]
  inhibition at 0.1 µM: 6%
5-HT2A
  5-HT2A maximum inhibition: 65%
D2; [2]
  inhibition at 0.1 µM: 0%
D1; at 100 nM
  inhibition at 0.1 µM: 0%
Mu opioid receptor
  Ki: 74 nM

## O=C1CN2c3c(cccc3[C@@H]3CN(CCCOc4ccc(O)cc4)CC[C@@H]32)N1 [Ex. 6, (6bR,10aS)-8-(3-(4-hydroxyphenoxy)propyl)-6b,7,8,9,10,10a-hexahydro-1H-pyrido[3′,4′:4,5]pyrrolo[1,2,3-de]quinoxalin-2(3H)-one]
SERT; [3]
  inhibition at 0.2 µM: 11%
5-HT2A
  inhibition at 0.1 µM: 77%
D2; [4]
  inhibition at 0.1 µM: 41%
D1; at 100 nM
  inhibition at 0.1 µM: 0.86%

## O=C1CN2c3c(cccc3[C@@H]3CN(CCCOc4ccccc4)CC[C@@H]32)N1 [Ex. 3, (6bR,10aS)-8-(3-phenoxypropyl)-6b,7,8,9,10,10a-hexahydro-1H-pyrido[3′,4′:4,5]-pyrrolo[1,2,3-de]quinoxalin-2(3H)-one]
SERT; at 50 μM (footnote a), read-out: SERT maximum inhibition
  inhibition at 50 µM: 8%
5-HT2A
  Ki: 2.84 nM
D2; [4]
  inhibition at 0.1 µM: 34%
D1
  inhibition at 0.1 µM: 24%

## Cc1cc(F)cc(C)c1OCCCN1CC[C@H]2[C@@H](C1)c1cccc3c1N2CC(=O)N3 [Ex. 11, (6bR,10aS)-8-(3-(4-fluoro-2,6-dimethylphenoxy)propyl)-6b,7,8,9,10,10a-hexahydro-1H-pyrido[3′,4′:4,5]-pyrrolo[1,2,3-de]quinoxalin-2(3H)-one]
SERT; [5]
  inhibition at 0.2 µM: 34%
5-HT2A
  inhibition at 0.1 µM: 40%
D2; [2]
  inhibition at 0.1 µM: < 0%
D1; at 100 nM
  inhibition at 0.1 µM: < 0%

## CC(=O)Nc1cccc2c1N[C@H]1CCN(CCCOc3ccc(F)cc3)C[C@@H]21 [Ex. 14, N-((4aS,9bR)-2-(3-(4-fluorophenoxy)propyl)-2,3,4,4a,5,9b-hexahydro-1H-pyrido[4,3-b]indol-6-yl)acetamide]
SERT; [3]
  inhibition at 0.2 µM: 4%
5-HT2A; at 100 nM
  inhibition at 0.1 µM: 67%
D2; [2]
  inhibition at 0.1 µM: 11%
D1; at 100 nM
  inhibition at 0.1 µM: 25%
Mu opioid receptor
  inhibition at 0.1 µM: 9%

## O=C1Nc2cccc3c2N([C@H]2CCN(CCCOc4ccc(F)cc4)C[C@@H]32)C1(F)F [Ex. 13, (6bR,10aS)-1,1-difluoro-8-(3-(4-fluorophenoxy)propyl)-6b,7,8,9,10,10a-hexahydro-1H-pyrido[3′,4′:4,5]pyrrolo[1,2,3-de]quinoxalin-2(3H)-one]
SERT; [3]
  inhibition at 0.2 µM: 6%
5-HT2A; at 100 nM
  inhibition at 0.1 µM: 21%
D2; [2]
  inhibition at 0.1 µM: 7%
D1; at 100 nM
  inhibition at 0.1 µM: 24%
Mu opioid receptor
  inhibition at 0.1 µM: < 0%

## CN1C(=O)CN2c3c(cccc31)[C@@H]1CN(CCCOc3ccc(F)cc3C#N)CC[C@@H]12 [Ex. 26]
SERT; [3]
  inhibition at 0.2 µM: 93%
5-HT2A; at 100 nM
  inhibition at 0.1 µM: 91%
D2; [2]
  inhibition at 0.1 µM: 14%
D1; at 100 nM
  inhibition at 0.1 µM: 93%
Mu opioid receptor; concentration not printed in this table (row head: Mu (Ki, nM))
  Mu maximum inhibition: 5%

## O=C1CN2c3c(cccc3[C@@H]3CN(CCCO)CC[C@@H]32)N1 [Ex. 2, (6bR,10aS)-8-(3-hydroxypropyl)-6b,7,8,9,10,10a-hexahydro-1H-pyrido[3′,4′:4,5]pyrrolo[1,2,3-de]quinoxalin-2(3H)-one]
SERT; [3]
  inhibition at 0.2 µM: < 0%
5-HT2A
  inhibition at 0.1 µM: 8%

## O=C1CN2c3c(cccc3[C@@H]3CN(CCCOc4ccc(OCc5ccccc5)cc4)CC[C@@H]32)N1 [Ex. 7, (6bR,10aS)-8-(3-(4-(benzyloxy)phenoxy)propyl)-6b,7,8,9,10,10a-hexahydro-1H-pyrido[3′,4′:4,5]-pyrrolo[1,2,3-de]quinoxalin-2(3H)-one]
SERT; [3]
  inhibition at 0.2 µM: 68%
5-HT2A
  inhibition at 0.1 µM: 76%
D2; [4]
  inhibition at 0.1 µM: 23%
D1
  inhibition at 0.1 µM: 4.6%

## Cc1cc(OCCCN2CC[C@H]3[C@@H](C2)c2cccc4c2N3CC(=O)N4)ccc1F [Ex. 21]
SERT; [1]
  inhibition at 0.1 µM: 14%
5-HT2A
  5-HT2A maximum inhibition: 77%
D2; [2]
  inhibition at 0.1 µM: 0%
D1; at 100 nM
  inhibition at 0.1 µM: < 1%
Mu opioid receptor
  Ki: 69 nM

## O=C1CN2c3c(cccc3[C@@H]3CN(CCCS(=O)(=O)c4ccc(F)cc4)CC[C@@H]32)N1 [compound 12, (6bR,10aS)-8-(3-((4-fluorophenyl)sulfonyl)propyl)-6b,7,8,9,10,10a-hexahydro-1H-pyrido[3′,4′:4,5]pyrrolo-[1,2,3-de]quinoxalin-2(3H)-one]
SERT; [3]
  inhibition at 0.2 µM: < 0%
5-HT2A
  inhibition at 0.1 µM: 33%
Mu opioid receptor
  inhibition at 0.1 µM: < 0%

## CCc1cc(F)ccc1OCCCN1CC[C@H]2[C@@H](C1)c1cccc3c1N2CC(=O)N3 [Ex. 20]
SERT; [3]
  inhibition at 0.2 µM: 26%
5-HT2A
  Ki: 0.3 nM
D2; [2]
  inhibition at 0.1 µM: 69%
D1; at 100 nM
  inhibition at 0.1 µM: 66%
Mu opioid receptor
  Ki: 5.4 nM

## Cc1cc(F)ccc1OCCCN1CC[C@H]2[C@@H](C1)c1cccc3c1N2CC(=O)N3 [Ex. 18]
SERT; [3]
  inhibition at 0.2 µM: 32%
5-HT2A
  Ki: 0.4 nM
D2; [2]
  inhibition at 0.1 µM: 69%
D1; at 100 nM
  inhibition at 0.1 µM: 40%
Mu opioid receptor
  Ki: 2.9 nM

## CC(=O)Nc1cccc2c1N[C@H]1CCN(CCCC(=O)c3ccc(F)cc3)C[C@@H]21 [Ex. 15, N-((4aS,9bR)-2-(4-(4-fluorophenyl)-4-oxobutyl)-2,3,4,4a,5,9b-hexahydro-1H-pyrido[4,3-b]indol-6-yl)acetamide]
SERT; [3]
  inhibition at 0.2 µM: < 0%
5-HT2A; at 100 nM
  inhibition at 0.1 µM: 80%
D2; [2]
  inhibition at 0.1 µM: 49%
D1; at 100 nM
  inhibition at 0.1 µM: 45%
Mu opioid receptor
  inhibition at 0.1 µM: 11%

## O=C1CN2c3c(cccc3[C@@H]3CN(CCCC(=O)c4ccc(Cl)s4)CC[C@@H]32)N1 [Ex. 4, (6bR,10aS)-8-(4-(5-chlorothiophen-2-yl)-4-oxobutyl)-6b,7,8,9,10,10a-hexahydro-1H-pyrido[3′,4′:4,5]-pyrrolo[1,2,3-de]quinoxalin-2(3H)-one]
SERT
  Ki: 66 nM
5-HT2A
  Ki: 18.3 nM
D2; [2]
  inhibition at 0.1 µM: 41%
D1; at 100 nM
  inhibition at 0.1 µM: 34%
Mu opioid receptor
  Ki: 8.15 nM

## CCCCN1CC[C@H]2[C@@H](C1)c1cccc3c1N2CC(=O)N3 [Ex. 1, (6bR,10aS)-8-butyl-6b,7,8,9,10,10a-hexahydro-1H-pyrido[3′,4′:4,5]pyrrolo[1,2,3-de]quinoxalin-2(3H)-one]
SERT; [1]
  inhibition at 0.2 µM: < 0%
5-HT2A
  inhibition at 0.1 µM: < 0%
D2; [2]
  inhibition at 0.1 µM: 15%

## NC(=O)c1cc(F)ccc1OCCCN1CC[C@H]2[C@@H](C1)c1cccc3c1N2CC(=O)N3 [Ex. 8, 5-fluoro-2-(3-((6bR,10aS)-2-oxo-2,3,6b,9,10,10a-hexahydro-1H-pyrido[3′,4′:4,5]pyrrolo[1,2,3-de]quinoxalin-8(7H)-yl)propoxy)benzamide]
SERT; [3]
  inhibition at 0.2 µM: 9.6%
5-HT2A
  inhibition at 0.1 µM: 14%
D2; at 100 μM (footnote b), read-out: D2 maximum inhibition
  inhibition at 100 µM: < 0%
D1; at 100 nM
  inhibition at 0.1 µM: 0.78%

## N#Cc1cc(OCCCN2CC[C@H]3[C@@H](C2)c2cccc4c2N3CC(=O)N4)ccc1F [Ex. 23]
SERT; [1]
  inhibition at 0.1 µM: 13%
5-HT2A
  5-HT2A maximum inhibition: 35%
D2; [2]
  inhibition at 0.1 µM: 0%
D1; at 100 nM
  inhibition at 0.1 µM: 0%
Mu opioid receptor
  Ki: 65 nM

## O=C1CN2c3c(cccc3[C@@H]3CN(CCCOc4ccc(F)cc4Cl)CC[C@@H]32)N1 [Ex. 19]
SERT; [3]
  inhibition at 0.2 µM: 23%
5-HT2A
  Ki: 0.6 nM
D2; [2]
  inhibition at 0.1 µM: 80%
D1; at 100 nM
  inhibition at 0.1 µM: 33%
Mu opioid receptor
  Ki: 3 nM

## O=C1CN2c3c(cccc3[C@@H]3CN(CCCOc4ccc(F)cc4)CC[C@@H]32)N1 [Fm. A, (6bR,10aS)-8-(3-(4-fluorophenoxy)propyl)-6b,7,8,9,10,10a-hexahydro-1H-pyrido[3′,4′:4,5]pyrrolo[1,2,3-de]quinoxalin-2(3H)-one, reference compound]
D1
  inhibition at 0.1 µM: 44%

## CC(=O)Nc1cccc2c1N[C@H]1CCN(CCCC(O)c3ccc(F)cc3)C[C@@H]21 (stereo partly drawn) [Ex. 16, N-((4aS,9bR)-2-(4-(4-fluorophenyl)-4-hydroxybutyl)-2,3,4,4a,5,9b-hexahydro-1H-pyrido[4,3-b]indol-6-yl)acetamide]
SERT; [3]
  inhibition at 0.2 µM: < 0%
5-HT2A; at 100 nM
  inhibition at 0.1 µM: < 0%
D2; [2]
  inhibition at 0.1 µM: < 0%
D1; at 100 nM
  inhibition at 0.1 µM: < 0%
Mu opioid receptor
  inhibition at 0.1 µM: < 0%

## O=C1CN2c3c(cccc3[C@@H]3CN(CCCOc4ccc(F)c(F)c4)CC[C@@H]32)N1 [Ex. 9, (6bR,10aS)-8-(3-(3,4-difluorophenoxy)propyl)-6b,7,8,9,10,10a-hexahydro-1H-pyrido[3′,4′:4,5]pyrrolo-[1,2,3-de]quinoxalin-2(3H)-one]
SERT; [5]
  inhibition at 0.2 µM: 15%
5-HT2A
  Ki: 16.1 nM
D2; [4]
  inhibition at 0.1 µM: 7%
D1
  inhibition at 0.1 µM: 15%
Mu opioid receptor
  Ki: 1.83 nM

## N#Cc1cc(F)ccc1OCCCN1CC[C@H]2[C@@H](C1)c1cccc3c1N2CC(=O)N3 [Ex. 25]
SERT
  Ki: 35 nM
5-HT2A
  Ki: 3.8 nM
D2
  Ki: 43 nM
D1
  Ki: 74 nM
Mu opioid receptor
  Ki: 8.4 nM
